Earlier results, collected in article PMC5375023 (Neurochemistry international, 2017).

By UniProt entry, the sequences of proteins in these tests, tags left out. Where a name states a change or a piece, a line headed by the entry shows the natural chain unless it says otherwise.
UniProt Q99720, whole entry: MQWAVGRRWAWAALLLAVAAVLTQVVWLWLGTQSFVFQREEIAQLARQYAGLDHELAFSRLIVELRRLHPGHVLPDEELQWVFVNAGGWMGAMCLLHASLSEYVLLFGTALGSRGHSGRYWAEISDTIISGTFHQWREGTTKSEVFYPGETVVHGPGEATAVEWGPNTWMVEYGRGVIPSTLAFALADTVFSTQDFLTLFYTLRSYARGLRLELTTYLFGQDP

Biological target: human S1R (Homo sapiens, UniProt Q99720)
Conditions: ref Lee et al., 2008; cited from earlier work

(+)-SKF10047
affinity for the S1R, in words: relatively low affinity
